# Reference: patent US4162311A, “Medicinal preparation with pronounced vegetotropic and antiepileptic effect for treating psychoneurotic disorders” (priority 1977, dated 1979)
# Tested on: hippocamp and amygdaloid nuclei
# Experiment: electrical activity of brain structures, implanted electrodes
# Format: in vivo
# Details: rabbits, 100 to 200 mg/kg
# Text: The localization of brain structures that are the most sensitive to hydrazide of diphenylphosphinylacetic acid was studied on rabbits having electrodes permanently implanted in different parts of the cerebral cortex and subcortical formations.
structure (smiles),measurement,value
NNC(=O)CP(=O)(c1ccccc1)c1ccccc1 [Hydrazide of diphenylphosphinylacetic acid],electrical activity in hippocamp and amygdaloid nuclei,reduces the electrical activity
